Source: patent publication US20090048295A1, “SUBSTITUTED 5,6,7,8-TETRAHYDROQUINOLINE DERIVATIVES, COMPOSITIONS, AND METHODS OF USE THEREOF” (priority 2007, published 2009)

Protein sequences, listed by entry. Tags and fused reporters are not part of them.
UniProt P21730, whole entry: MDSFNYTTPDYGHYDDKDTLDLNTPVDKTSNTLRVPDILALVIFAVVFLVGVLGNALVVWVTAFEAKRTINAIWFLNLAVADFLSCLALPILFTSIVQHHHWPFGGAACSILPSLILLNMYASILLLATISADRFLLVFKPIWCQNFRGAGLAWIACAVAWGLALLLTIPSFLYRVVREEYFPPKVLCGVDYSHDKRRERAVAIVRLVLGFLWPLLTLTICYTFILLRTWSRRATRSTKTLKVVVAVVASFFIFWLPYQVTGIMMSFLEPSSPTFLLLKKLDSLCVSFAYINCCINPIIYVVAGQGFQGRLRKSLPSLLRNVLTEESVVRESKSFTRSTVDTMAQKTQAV

Tests used:
C5a receptor [1] = target: T1, C5a receptor (Homo sapiens, UniProt P21730); assay: Calcium Mobilization Assay (C5a-induced Ca2+ mobilization, FLIPR, differentiated U937 cells); type: cell-based; details: read-out: C5a Induced Ca Mobil. Average IC50, 1.5 nM recombinant human C5a, 20 min pre-incubation, multiple values = duplicate experiments
C5a receptor [2] = target: T1, C5a receptor; assay: [125I]-C5a Radioligand Binding Assay (competition binding, differentiated U937 cells); details: [125I]-C5a 0.05 nM, multiple values = duplicate experiments;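 further: cells preincubated with compound 30 min at room temperature, then 60 min at 4 °C with radioligand, bound counts read by scintillation, nonspecific binding defined with 100 nM C5a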

## CCc1cccc(CC)c1-c1cc(OC)c2c(n1)CCCC2OCCNc1cccc2ccccc12 (stereo not drawn)
C5a receptor [1]
  IC50: > 10 µM
C5a receptor [2]; test compound 1 μM
  [125I]-C5a Binding % Inhibition 1 μM: 54%
C5a receptor [2]; test compound 10 μM
  [125I]-C5a Binding % Inhibition 10 μM: 84%
